From patent US20260382581A1, “COMPOSITIONS COMPRISING CYTISINE IN THE TREATMENT AND/OR PREVENTION OF ADDICTION IN SUBJECTS IN NEED THEREOF” (published 2026)

Columns and labels:
[1] = ORCA-2: adverse events, serious adverse events, discontinuations; conditions: for Mild treatment emergent adverse events, % / Moderate treatment emergent adverse events, % / Severe treatment emergent adverse events, %: % of events
Description: Safety was assessed by measurement of vital signs and participant self-report of adverse events and concomitant medications on day 2 and at weekly visits during treatment from week 1 to 12 and through an additional 12-week follow-up. Hematology and chemistry laboratory tests were done at weeks 1, 6, and 12. Electrocardiograms were done at weeks 6 and 12. Clinically significant adverse events or abnormalities were followed until resolution or end of study.
(§1) The study had two primary endpoints. They assessed whether cytisinicline produced greater biochemically-confirmed continuous smoking abstinence when compared to placebo during the last 4 weeks of the 6-week treatment (weeks 3 to 6 for Arms B vs. A) and the 12-week treatment (weeks 9 to 12 for Arms C vs. A). Study success was defined as either primary endpoint meeting statistical criterion. The secondary outcome measures were verified continuous cigarette abstinence to week 24 (weeks 3 to 24 for Arms B vs. A; weeks 9 to 24 for Arms C vs. A). A third secondary outcome measure compared the risk of relapse to smoking between weeks 6 and 24 among participants assigned to cytisinicline who achieved abstinence by week 6; these individuals were either switched to placebo at week 6 (Arm B) or continued cytisinicline to week 12 (Arm C). Other pre-specified endpoints included comparing the difference between arms in verified 7-day point-prevalence abstinence at each visit from week 2 through week 24 and assessing for evidence of effect modification for subsets defined by baseline attributes. To assess cigarette craving between groups, the Brief Questionnaire of Smoking Urges (QSU-brief) was administered at clinic visits on Day 0 and at Weeks 1 to 6 (4, 5). Safety outcomes included the incidence of treatment-emergent serious and non-serious adverse events during treatment with cytisinicline or placebo and clinically-significant changes in vital signs, laboratory tests or electrocardiograms.
Analyses for the binary primary and secondary outcomes were based on exact analyses 2×2 tables stratified by clinical site. Missed assessments of primary and secondary endpoints were imputed as non-success, thereby enabling analyses following the intent-to-treat principle. The Hochberg procedure was used to control for multiplicity (6). A target sample of 750 participants (n=250 per arm) was computed and verified using simulations to provide 96% power for specifications of an overall one-sided 0.025 type I error probability and success probabilities of 7% for placebo and 19% for cytisinicline. Sensitivity analyses included assessments of effect modification related to subsets defined by baseline attributes using logistic and cumulative logit models. Longitudinal analyses used Mixed Model for Repeated Measures methodology (7). Safety analyses included all randomized participants who received at least one dose of study drug. Analyses were conducted by BB.

adult smokers [2] = experiment: ORCA-2: risk of relapse to smoking, weeks 6 to 24
Source text: as §1, with “Safety outcomes included the incidence of treatment-emergent serious and non-serious adverse events during treatment with cytisinicline or placebo and clinically-significant changes in vital signs, laboratory tests or electrocardiograms.” left out

[3] = ORCA-1: expired carbon monoxide (CO) levels; conditions: cytisine-treated arms, regardless of schedule
Description: Expired carbon monoxide (CO) levels were also measured during this study as an objective biochemical marker for reduction in smoking. In all cytisine-treated arms, the reduction in carbon monoxide (CO) (55% to 62% reduction) was consistent with the reported reduction in cigarettes smoked (e.g., a range of 25% to 32% as Cigarette Scores represents a 75% to 68% reduction in cigarettes smoking). Conversely, in the placebo-treated arms, the reported reductions in the number of cigarettes smoked (e.g., 41% as the Cigarette Score, representing a 59% reduction in cigarettes smoked) was not paralleled by a corresponding reduction in carbon monoxide (CO) at only 29%.
Carbon monoxide (CO) levels (ppm) were assessed during the study at screening, baseline, end of study treatment intervention (Week 4), and weekly through Week 8 (FIG. 9). The screening and baseline visits' carbon monoxide (CO) means were approximately equal for all arms. At Week 4, significant reductions in carbon monoxide (CO) levels for all subjects treated in cytisine-treated arms, regardless of schedule, were observed. During the follow-up period (with only behavioral support) from Week 4 through Week 8, the carbon monoxide (CO) means in the pooled placebo arm were approximately constant, although somewhat lower than the means before the start of study treatment intervention.

adult smokers [4] = experiment: ORCA-2: cigarette craving, Brief Questionnaire of Smoking Urges (QSU-brief); conditions: 6 or 12 weeks, compared to placebo
Source text: The study had two primary endpoints. They assessed whether cytisinicline produced greater biochemically-confirmed continuous smoking abstinence when compared to placebo during the last 4 weeks of the 6-week treatment (weeks 3 to 6 for Arms B vs. A) and the 12-week treatment (weeks 9 to 12 for Arms C vs. A). Study success was defined as either primary endpoint meeting statistical criterion. The secondary outcome measures were verified continuous cigarette abstinence to week 24 (weeks 3 to 24 for Arms B vs. A; weeks 9 to 24 for Arms C vs. A). A third secondary outcome measure compared the risk of relapse to smoking between weeks 6 and 24 among participants assigned to cytisinicline who achieved abstinence by week 6; these individuals were either switched to placebo at week 6 (Arm B) or continued cytisinicline to week 12 (Arm C). […]
The mean total cigarette craving score, using the QSU-brief, declined more rapidly between baseline and week 6 among participants who received cytisinicline for 6 or 12 weeks, compared to placebo (FIG. 38). During the first 6 weeks of treatment, mean cigarette craving score, as measured by the Brief Questionnaire of Smoking Urges (QSU-brief), declined more among patients randomized to cytisinicline for 6 weeks and 12 weeks than among those randomized to placebo. […]

[5] = Arm B, 6 weeks + placebo 6 weeks, N = 269
[6] = Arm B, 6 weeks + placebo 6 weeks

SMILES: O=c1cccc2n1C[C@@H]1CNC[C@H]2C1
- Treatment-emergent adverse events, participants ([1]; 6-week arm (Arm B)): 172 (63.9%) n (%)
- Treatment-emergent adverse events, participants ([1]; 12-week arm (Arm C)): 184 (68.2%) n (%)
- Abnormal dreams, % participants [1, 5]: 8.2%
- Abnormal dreams, n participants [1, 5]: 22 n
- Anxiety, % participants [1, 5]: 2.6%
- Anxiety, n participants [1, 5]: 7 n
- Any serious adverse event, % participants [1, 5]: 3.7%
- Any serious adverse event, n participants [1, 5]: 10 n
- Any treatment emergent adverse event, % participants [1, 5]: 63.9%
- Any treatment emergent adverse event, n participants [1, 5]: 172 n
- Any treatment-related serious adverse event, % participants [1, 5]: 0%
- Any treatment-related serious adverse event, n participants [1, 5]: 0 n
- Constipation, % participants [1, 5]: 5.9%
- Constipation, n participants [1, 5]: 16 n
- Diarrhea, % participants [1, 5]: 3.7%
- Diarrhea, n participants [1, 5]: 10 n
- Headache, % participants [1, 5]: 6.7%
- Headache, n participants [1, 5]: 18 n
- Insomnia, % participants [1, 5]: 8.6%
- Insomnia, n participants [1, 5]: 23 n
- Nausea, % participants [1, 5]: 5.9%
- Nausea, n participants [1, 5]: 16 n
- Number of treatment emergent adverse events [1, 5]: 459 n
- Mild treatment emergent adverse events, % [1, 6]: 63.2%
- Moderate treatment emergent adverse events, % [1, 6]: 32.2%
- Severe treatment emergent adverse events, % [1, 6]: 4.6%
- Abnormal dreams, % participants ([1]; Arm C, 12 weeks, N = 270): 7.8%
- Abnormal dreams, n participants ([1]; Arm C, 12 weeks, N = 270): 21 n
- Anxiety, % participants ([1]; Arm C, 12 weeks, N = 270): 5.6%
- Anxiety, n participants ([1]; Arm C, 12 weeks, N = 270): 15 n
- Any serious adverse event, % participants ([1]; Arm C, 12 weeks, N = 270): 3.0%
- Any serious adverse event, n participants ([1]; Arm C, 12 weeks, N = 270): 8 n
- Any treatment emergent adverse event, % participants ([1]; Arm C, 12 weeks, N = 270): 68.2%
- Any treatment emergent adverse event, n participants ([1]; Arm C, 12 weeks, N = 270): 184 n
- Any treatment-related serious adverse event, % participants ([1]; Arm C, 12 weeks, N = 270): 0%
- Any treatment-related serious adverse event, n participants ([1]; Arm C, 12 weeks, N = 270): 0 n
- Constipation, % participants ([1]; Arm C, 12 weeks, N = 270): 4.8%
- Constipation, n participants ([1]; Arm C, 12 weeks, N = 270): 13 n
- Diarrhea, % participants ([1]; Arm C, 12 weeks, N = 270): 4.4%
- Diarrhea, n participants ([1]; Arm C, 12 weeks, N = 270): 12 n
- Headache, % participants ([1]; Arm C, 12 weeks, N = 270): 7.8%
- Headache, n participants ([1]; Arm C, 12 weeks, N = 270): 21 n
- Insomnia, % participants ([1]; Arm C, 12 weeks, N = 270): 9.6%
- Insomnia, n participants ([1]; Arm C, 12 weeks, N = 270): 26 n
- Nausea, % participants ([1]; Arm C, 12 weeks, N = 270): 5.6%
- Nausea, n participants ([1]; Arm C, 12 weeks, N = 270): 15 n
- Number of treatment emergent adverse events ([1]; Arm C, 12 weeks, N = 270): 494 n
- Mild treatment emergent adverse events, % ([1]; Arm C, 12 weeks): 61.3%
- Moderate treatment emergent adverse events, % ([1]; Arm C, 12 weeks): 36.0%
- Severe treatment emergent adverse events, % ([1]; Arm C, 12 weeks): 2.6%
- Serious adverse events (SAEs), participants ([1]; Arms B and C, of 539 participants): 18 (3.3%) n (%)
- treatment-related SAEs ([1]; all arms): No SAE was judged to be treatment-related
- incidences of abnormal dreams and insomnia vs placebo ([1]; cytisinicline arms): higher in the cytisinicline arms compared to placebo
- OR, serious adverse events ([1]; cytisinicline vs placebo, exact 95% CI 0.98 to 13.18): 3.08
- relapse-free abstinence week 6 to 24 (adult smokers [2]; Arm B (switched to placebo at week 6)): 10.4%
- relapse-free abstinence week 6 to 24 (adult smokers [2]; Arm C (continued to week 12)): 13.3%
- CO levels at Week 4 [3]: significant reductions in carbon monoxide (CO) levels
- mean total cigarette craving score, baseline to week 6 (adult smokers [4]): declined more rapidly between baseline and week 6
